Experimental data published in patent publication US20220282217A1, “COMPOSITIONS AND METHODS FOR PREPARING T CELL COMPOSITIONS AND USES THEREOF” (priority 2019, published 2022).

Tests used:
HLA-A03.01 (human) = experiment: pMHC-I dissociation half-life, 125I-b2m; conditions: remark: other sources report otherwise
HLA-A11.01 (human) = experiment: pMHC-I dissociation half-life, 125I-b2m; conditions: remark: other sources report otherwise

Measured stability (HLA-A03.01 (human)): 2.5 h
Measured stability (HLA-A11.01 (human)): 15.7 h
Binder: VVVGACGVGK […]
